From article doi:10.1101/2023.07.20.549907, “Mechanism of outer kinetochore assembly on microtubules and its regulation by mitotic error correction” (bioRxiv, 2023) come the findings set out here.

The target of the test is T1, Ndc80 subunit of the Ndc80 complex (S. cerevisiae, UniProt P40460 1-691).
T1 construct: Ndc80 subunit of the budding yeast Ndc80 complex; Stood in the structure as part of the Ndc80 complex; also called Ndc80^CH; Ndc80^CC; source: as subunit of m1
T1 sequence (looked up): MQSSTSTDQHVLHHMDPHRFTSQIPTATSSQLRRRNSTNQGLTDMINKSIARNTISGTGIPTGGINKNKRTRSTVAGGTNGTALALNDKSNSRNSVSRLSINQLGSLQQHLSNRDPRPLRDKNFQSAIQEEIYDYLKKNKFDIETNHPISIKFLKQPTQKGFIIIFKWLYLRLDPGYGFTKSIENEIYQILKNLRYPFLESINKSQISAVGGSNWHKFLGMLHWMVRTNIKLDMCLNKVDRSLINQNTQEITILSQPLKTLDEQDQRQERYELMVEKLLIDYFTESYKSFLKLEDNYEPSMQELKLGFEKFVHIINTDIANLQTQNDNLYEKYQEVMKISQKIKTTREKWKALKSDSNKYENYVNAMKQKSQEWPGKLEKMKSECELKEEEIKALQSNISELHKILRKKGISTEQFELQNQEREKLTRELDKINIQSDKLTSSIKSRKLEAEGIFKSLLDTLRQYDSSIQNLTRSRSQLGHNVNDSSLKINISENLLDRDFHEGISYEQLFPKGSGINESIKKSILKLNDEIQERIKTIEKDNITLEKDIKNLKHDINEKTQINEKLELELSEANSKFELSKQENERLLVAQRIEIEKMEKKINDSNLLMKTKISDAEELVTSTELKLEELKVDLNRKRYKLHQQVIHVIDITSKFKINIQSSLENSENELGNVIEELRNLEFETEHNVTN
Put plainly: cryo-EM structure; complexes assembled on cryo-EM grids by step-wise addition of taxol-stabilized microtubule filaments, Ndc80c and Dam1c; sub-boxing, signal subtraction and symmetry expansion for the separate reconstructions. The settings on record: both partners purified.

B1: Nuf2 subunit of the Ndc80 complex (natural protein, S. cerevisiae, UniProt P33895 1-451, looked up)
chain: MSRNQDVFPILDLQELVICLQSCDFALATQENISRPTSDYMVTLYKQIIENFMGISVESLLNSSNQETGDGHLQEENENIYLDTLNVLVLNKICFKFFENIGVQDFNMTDLYKPEAQRTQRLLSAVVNYARFREERMFDCNSFILQMESLLGQLRSKFDDYNLIQQQLKQYEDVDGDNIPDEQELQKLEEQNKELEIQLKKLTKIQETLSIDYNDYKISKQSIFKDLEALSFQIVELESNRDKLIKISNTDMEELSEGIKELNDLLIQRKKTLDDLTAQQKNLQDTVTTFETIISELYDVLRIISSEVQESNRTETELVGLKQNLINNKLKLMNVLETGIMYKLEILQEQLDLQLKNLEKLSQDTKEESRLNDTKLMDLQIKYENEIKPKIDKTDIFIQEELISGKINKLNDEIKQLQKDFEVEVKEIEIEYSLLSGHINKYMNEMLEYMQ
notes: Nuf2 subunit of the budding yeast Ndc80 complex; Stood in the structure as part of the Ndc80 complex; also called Nuf2^CH; Nuf2^CC; source: as subunit of m1
For B1, the binding result is listed as “binds”.
